Measured values published in US8809350B2, “Purine and pyrimidine CDK inhibitors and their use for the treatment of autoimmune diseases” (priority 2004, dated 2014).

Protein sequences, listed by entry. Tags and fused reporters are not part of them. Lines headed by an entry give the natural chain unless they say otherwise; changes in a name come on top.
UniProt P11802: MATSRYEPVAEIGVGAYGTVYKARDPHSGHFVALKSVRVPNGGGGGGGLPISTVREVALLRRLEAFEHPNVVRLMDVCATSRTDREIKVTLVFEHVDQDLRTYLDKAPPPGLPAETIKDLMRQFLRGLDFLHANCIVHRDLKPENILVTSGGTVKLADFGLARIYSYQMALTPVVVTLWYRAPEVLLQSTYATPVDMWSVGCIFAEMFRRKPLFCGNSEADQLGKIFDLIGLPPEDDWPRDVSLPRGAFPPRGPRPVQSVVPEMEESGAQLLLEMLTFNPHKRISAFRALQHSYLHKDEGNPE

Biological target: CDK4D1 (Homo sapiens, UniProt P11802)
Assay: In-house kinase assay (32P incorporation)
Type: biochemical

In the case of `Cn1cnc2c(NCc3ccccc3)nc(NCCO)nc21` [Compound 3], the IC50 is reported as over 100 µM.
